# Test results: US12568965B2, “Antimicrobial composition comprising an alkyldimethylbenzylammonium compound” (priority 2022, dated 2026)
substance,measurement,value
"n-alkyl (40% C12, 50% C14, 10% C16) dimethylbenzylammonium saccharinate [ADMBAS]",Solubility in water,substantially insoluble in water
